Some of the results follow. Records with an inconclusive call do not appear. Active and inactive are the calls of the source. Calls follow the shape of the dose curve; as a rule, active = well fitted inhibition curve with a large enough effect; inconclusive = small, poorly fitted or top-dose-only effect, or effect the other way, or another doubt; inactive = no such curve, though single readings can be large or run the other way.
molecular target: Lysosomal alpha-glucosidase (Homo sapiens) (UniProt P10253); experiment: qHTS Assay for Inhibitors of Human alpha-Glucosidase as a Potential Chaperone Treatment of Pompe Disease; conditions: purified human GAA, 4-MU-alpha-glucoside fluorescence; at 76.9 µM (top of the series) unless noted;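 also: plate controls were uninhibited enzyme wells for no effect and no-enzyme background for full effect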

Compound	activity change, negative = inhibition
c1ccc(-c2nn[nH]n2)c(-c2nn[nH]n2)c1	inactive: -7.71%
CCOC(=O)NC(Sc1ccccc1)C(Cl)(Cl)Cl (stereo not given)	inactive: -13.3%
O=C(NC1CCS(=O)(=O)C1)NP(=S)(Oc1ccccc1)Oc1ccccc1 (stereo not given)	inactive: 0.644%
CCNC(=S)/N=C(\N)N[N+](=O)[O-]	inactive: 0.417%
O=[N+]([O-])c1ccc2c(c1)nnn2O	inactive: -5.6%
CCOP1(=S)c2c(C)nn(CCC#N)c2N=C(c2ccccc2F)N1C (stereo not given)	inactive: 0.945%
O=P(Nc1nccs1)(c1ccccc1)c1nc2ccccc2s1 (stereo not given)	inactive: -1.6%
O=P(Nc1nccs1)(Oc1ccccc1)Oc1ccccc1	inactive: 8.51%
CS(=O)(=O)c1cc([N+](=O)[O-])c2no[n+]([O-])c2c1	inactive: -5.24% [at 15.4 µM]
Nc1cccc2c([As](=O)(O)O)cccc12	inactive: -13.2%
Cc1ccc(NCCc2c([N+](=O)[O-])cc([N+](=O)[O-])cc2[N+](=O)[O-])cc1	inactive: -1.84%
COc1cc(C2NCCC3(OCCO3)C2(C)C)cc(OC)c1OC (stereo not given)	inactive: 0.273%
CCOP(=O)(Nc1cccc2ccccc12)OCC	inactive: -5.69%
COc1cc(C(=O)NCC2(N3CCOCC3)CCCCC2)cc(Cl)c1OC(C)C	inactive: -5.61%
O=[As](O)(c1cccc(O)c1)c1cccc(O)c1	inactive: -3.91% [at 15.4 µM]
Cc1cccc(OCC(=O)OC2CN3CCC2CC3)c1 (stereo not given)	inactive: 2.74%
CN(C(=O)Cc1ccc(Cl)c(Cl)c1)[C@@H]1CCCC[C@H]1N1CCCC1	inactive: -13.6% [at 15.4 µM]
CC(C)/C=N\N=C(\N)N[N+](=O)[O-]	inactive: 1.93%
O=P1(Nc2ccccn2)COc2ccccc2OC1	inactive: 5.97%
Clc1n[nH]nc1-c1nn[nH][15n]1	inactive: -4.49%
CC(C)(C)C(=O)NC(Sc1ncccn1)C(Cl)(Cl)Cl (stereo not given)	inactive: -4.49%
O=P1(Nc2ncccn2)COc2ccccc2OC1	inactive: -0.319%
O=P1(Nc2ccc(Br)cn2)COc2ccccc2OC1	inactive: 1.93%

Compound	activity change, negative = inhibition
Cc1ccc(OCC(=O)OC2CN3CCC2CC3)cc1 (stereo not given)	inactive: 4.31%
Cc1nn(-c2ccccc2)c2c1P(=O)(N1CCOCC1)N(C)C(c1ccccc1)=N2 (stereo not given)	inactive: 0.798%
O=C(/C=C/c1ccccc1)OC1CN2CCC1CC2 (stereo not given)	inactive: 4.21%
CCOC(=O)Nc1cccc([As](=O)(O)O)c1	inactive: 2.28%
Cc1cc(SC(NC=O)C(Cl)(Cl)Cl)ncn1 (stereo not given)	inactive: 5.64%
O=P(Nc1ccccn1)(c1cccc2ccccc12)c1cccc2ccccc12	inactive: 5.23%
Cc1cc(SC(NC(=O)c2ccccc2)C(Cl)(Cl)Cl)nc(C(C)C)n1 (stereo not given)	inactive: -12.4%
CCC(C)N(CC(C)C)C(=S)SC(NC(C)=O)C(Cl)(Cl)Cl (stereo not given)	inactive: -5.13%
COP1(=S)c2c(C)nn(CCC#N)c2N=C(c2ccc(F)cc2)N1C (stereo not given)	inactive: 0.835%
O=C(COc1ccccc1)OC1CN2CCC1CC2 (stereo not given)	inactive: 9.15%
COc1ccc(N/C(=N/P(=O)(N2CCOCC2)N2CCOCC2)N2CCOCC2)cc1	inactive: 1.04%
Cc1c2c(nc3ccccc13)SC(C(Cl)Cl)C2 (stereo not given)	inactive: -12.2%
O=C(OC1CN2CCC1CC2)C12CC3CC(CC(C3)C1)C2 (stereo not given)	inactive: -6.37% [at 15.4 µM]
Cc1cc(=O)[nH]c(N[N+](=O)[O-])n1	inactive: -0.112%
COc1ccc2nc(NP(=O)(c3ccccc3)c3ccccc3)sc2c1	inactive: 7.99%
ClCCSc1nnc(-c2cccnc2)o1	inactive: -7.79%
CCN(CC)C(=S)SC(NC=O)C(Cl)(Cl)Cl (stereo not given)	inactive: 5.66%
CC(C)NC(=O)NP(=O)(Oc1ccccc1)Oc1ccccc1	inactive: 5.97%
O=[N+]([O-])c1cc([N+](=O)[O-])c(-c2ccn[nH]2)s1	inactive: -0.846%
C[As](=O)(O)c1cccc(C(=O)O)c1	inactive: 3.08%
Cc1ccc(OP(=O)(Nc2ccc([N+](=O)[O-])cn2)Oc2ccc(C)cc2)cc1	inactive: -1.91%
Cc1ccc2nc3c(c(C)c2c1)CC(C(Cl)Cl)S3 (stereo not given)	inactive: -0.478%
